From patent US11472877 (Alector, dated 2022)

Chains of the proteins cited; added tags and fusions are not shown. Residues count along the entry.
UniProt Q9NP99, 21-205 limits assumed: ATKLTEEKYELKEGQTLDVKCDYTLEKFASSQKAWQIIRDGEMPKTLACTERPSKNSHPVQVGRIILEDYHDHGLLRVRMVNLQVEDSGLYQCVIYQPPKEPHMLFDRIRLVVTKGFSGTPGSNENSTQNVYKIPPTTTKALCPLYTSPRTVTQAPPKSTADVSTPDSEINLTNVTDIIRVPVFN

B1: T1-1 Fab (Fab, V domains shown)
VH: QVQLVQSGAEVKKPGSSVKVSCKASGGTFSSYAISWVRQAPGQGLEWMGGIIPIFGTANYAQKFQGRVTITADESTSTAYMELSSLRSEDTAVYYCARGQGSDHYYYGMDVWGQGTTVTVSS
VL: not shown
notes: Fab of T1-1
B2: T1-38 Fab (Fab, V domains shown)
VH: QVQLVESGGGVVQPGRSLRLSCAASGLTFSSYGMHWVRQAPGKGLEWVAVISYDGSNKYYADSVKGRFTISRDNSKNTLYLQMNSLRAEDTAVYYCARERGTYYYASGWANWGQGTLVTVSS
VL: not shown
notes: Fab of T1-38
B3: T1-41 Fab (Fab, V domains shown)
VH: not shown
VL: DIQLTQSPSSVSASVGDRVTITCRASQDISSWLAWYQQKPGKAPKLLIYAASSLQSGVPSRFSGSGSGTDFTLTISSLQPEDFATYYCQQAVIHPPYTFGGGTKVEIK
notes: Fab of T1-41
B4: T1-42 Fab (Fab, V domains shown)
VH: QVQLVESGGGVVQPGRSLRLSCAASGFTFSSYGMHWVRQAPGKGLEWVAVIWYDGSNKGYADSVKGRFTISRDNSKNTLYLQMNSLRAEDTAVYYCARELMVTSGGWLYGMDVWGQGTTVTVSS
VL: EIVMTQSPATLSVSPGERATLSCRASQSVSSNLAWYQQKPGQAPRLLIYGASTRATGIPARFSGSGSGTEFTLTISSLQSEDFAVYYCQQYNVHPPRTFGGGTKVEIK
notes: Fab of T1-42
B5: T1-43 Fab (Fab, V domains shown)
VH: QVQLVQSGAEVKKPGASVKVSCKASGYTFTSYYMHWVRQAPGQGLEWMGIINPSGGSTSYAQKFQGRVTMTRDTSTSTVYMELSSLRSEDTAVYYCAREAGNYYDIESAFDIWGQGTMVTVSS
VL: not shown
notes: Fab of T1-43
B6: T1-44 Fab (Fab, V domains shown)
VH: QVQLVQSGAEVKKPGASVKVSCKASGYTFTSYYMHWVRQAPGQGLEWMGVINPSGGSTSYAQKFQGRVTMTRDTSTSTVYMELSSLRSEDTAVYYCAREGSGYDESMDVWGQGTTVTVSS
VL: not shown
notes: Fab of T1-44
B7: T1-8 Fab (Fab, V domains shown)
VH: B6 VH with V50I, G100V, G102M, Y103T, D104A, E105A, M107L, T115M
VL: not shown
notes: Fab of T1-8
B8: T1-45 Fab (Fab, V domains shown)
VH: B6 VH
VL: not shown
notes: Fab of T1-45
B9: T1-48 Fab (Fab, V domains shown)
VH: B6 VH with S54G, G100A, S101G, G102Q, Y103T, D104S, E105S, S106A, M107L, T115M
VL: not shown
notes: Fab of T1-48
B10: T1-10 Fab (Fab, V domains shown)
VH: B6 VH with V50I, Y103S, D104W, S106T, M107L, T115M
VL: not shown
notes: Fab of T1-10
B11: T1-46 Fab (Fab, V domains shown)
VH: B6 VH
VL: not shown
notes: Fab of T1-46
B12: T1-50 (antibody, IgG1, V domains shown)
VH: QVQLVQSGAEVKKPGASVKVSCKASGYTFTSYYMHWVRQAPGQGLEWMGIINPGGGSTSYAQKFQGRVTMTRDTSTSTVYMELSSLRSEDTAVYYCAREAGTMSSAFDIWGQGTMVTVSS
VL: not shown
notes: huIgG1; also called TI-50; ADI-19125
B13: T1-5 (antibody, IgG1, V domains shown)
VH: B6 VH with G100S, S101D, Y103I, E105S, S106Y, M107F, V109Y, T115L
VL: not shown
notes: huIgG1; also called TI-5; ADI-19071

Columns and labels:
Human TREM1-Fc = target: T1, Human TREM1-Fc (human, UniProt Q9NP99 21-205, limits assumed); assay: Fab on human TREM1-Fc, monovalent; method not stated
T1 construct: not shown: Fc part

human TREM1 = human TREM1 (human, UniProt Q9NP99 21-205, limits assumed); assay: IgG, monovalent; method and antigen form not stated

Binder | Kd (Human TREM1-Fc) [nM] | koff (Human TREM1-Fc) [s⁻¹] | kon (Human TREM1-Fc) [M⁻¹ s⁻¹] | Kd (human TREM1) [nM] | koff (human TREM1) [s⁻¹] | kon (human TREM1) [M⁻¹ s⁻¹]
B1 | 38.5 | 0.00664 | 172000 | – | – | –
B2 | 14.9 | 0.00667 | 447000 | – | – | –
B3 | 8.76 | 0.00523 | 597000 | – | – | –
B4 | 16.8 | 0.0108 | 644000 | – | – | –
B5 | 10.7 | 0.00138 | 129000 | – | – | –
B6 | 29.6 | 0.00633 | 214000 | – | – | –
B7 | 65.5 | 0.00775 | 118000 | – | – | –
B8 | 9.06 | 0.00146 | 161000 | – | – | –
B9 | 34.1 | 0.00446 | 131000 | – | – | –
B10 | 6.07 | 0.000634 | 104000 | – | – | –
B11 | 10.8 | 0.00143 | 133000 | – | – | –
B12 | – | – | – | 32.8 | 0.00502 | 153000
B13 | – | – | – | 72.6 | 0.0115 | 158000

Substitutions are numbered along the chain they refer to.
